Measurements taken from PubChem BioAssay AID1508641 (National Center for Advancing Translational Sciences (NCATS), 2021).
Only a part is listed here, and it is no random draw. Inconclusive results are not listed. Activity calls are given as the source filed them. Calls follow the shape of the dose curve; as a rule, active = well fitted cell-killing curve with a large enough effect; inconclusive = small, poorly fitted or top-dose-only effect, or effect the other way; inactive = flat fitted curve, though single readings scatter.

Assay: Cell viability qHTS assay in S16 Pmp22-F2sN cells - Confirmatory screen
Settings: S16 Schwann cells viability, CellTiter-Glo ATP luminescence, 24 h; at 57.5 µM (top of the series)
Description: Assay Provider: Jim Inglese Ph.D. National Center for Advancing Translational Science, National Institutes of Health, Rockville, MD CMT is a heterogeneous group of neurological disorders that affect approximately 1 in 2,500 people. In particular, the most common form of CMT, CMT1A is genetically linked to the duplication of the PMP22 gene which leads to Schwann cell overexpression, thus manifesting itself as a typical case of dose-sensitive diseases. […] We can further discriminate the effect of all transcriptionally active molecules on PMP22 translation or stability with an assay that incorporates a short NLuc peptide (HiBiT) at the C-terminus of expressed PMP22 (S16(f8) PMP22-HiBiT) allowing alpha complementation and luminescence detection of membrane-associated PMP22 protein. […] Miniaturization of these assays to 1536-well plate format for quantitative high throughput screening (qHTS) yielded rich data sets immediately from the qHTS assay (S16(c9) Pmp22-F2sN), when compared with data from a cell viability assay (Cell TiterGlo) to identify compounds that decreased the output signals through cellular toxicity to streamline the selection process of actives for subsequent characterization using the HiBiT assay (S16(f8) PMP22-HiBiT). […]
% is scaled to controls: 0 for no effect and ±100 for the full control effect.

Which activity change, negative = viability loss does the source give for `CC(C)(C)c1ccc(C(=O)NCC2(N3CCOCC3)CCCCC2)cc1` here?
Its activity change, negative = viability loss is inactive: 1.21%.
